Target: T1, His6-StBax1 (Sulfolobus tokodaii Bax1) (Sulfolobus tokodaii, UniProt Q970I1 1-481)
T1 sequence (looked up): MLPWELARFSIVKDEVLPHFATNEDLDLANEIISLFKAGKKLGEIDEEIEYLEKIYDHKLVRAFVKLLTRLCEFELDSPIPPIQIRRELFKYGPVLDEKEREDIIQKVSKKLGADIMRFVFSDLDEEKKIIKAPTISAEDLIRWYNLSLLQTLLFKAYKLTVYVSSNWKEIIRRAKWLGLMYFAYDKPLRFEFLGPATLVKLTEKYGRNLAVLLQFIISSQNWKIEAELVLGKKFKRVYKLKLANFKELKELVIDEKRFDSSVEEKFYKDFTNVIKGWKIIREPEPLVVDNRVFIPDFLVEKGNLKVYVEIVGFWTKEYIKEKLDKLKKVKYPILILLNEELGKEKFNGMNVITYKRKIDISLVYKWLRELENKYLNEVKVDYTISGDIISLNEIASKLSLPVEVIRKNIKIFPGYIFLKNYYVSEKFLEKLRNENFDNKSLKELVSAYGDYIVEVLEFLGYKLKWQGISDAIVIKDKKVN
Test: cell-based or functional assay

B1: His6-StXPB (Sulfolobus tokodaii XPB, XPBII) (enzyme, UniProt Q970I2 1-439, looked up)
chain: MVYLRYFKGLILSDAYAPGLKWSDELKAYSALAFKYRDVRKYFLEKEIEVEENVIDSLPFPLIKDKIELRDYQAEAVKAWLKEKRGIIVLPTGAGKTQVALKIVSIMKVATLIVVPTIDLITQWKERINKYLDFDPGIIGGGEDSLKGITVITYDSAYTRAEELGNKFPLLIFDEVHHLPSEGYSIMAQLFASPYRLGLTATPERDDGKHELYPILVGPIVYRKSVEELAGKYIAKYKIKKLYVSLTNEEKKRYDGLRKKLKDFLSSRGLKLQNLDDFHRLVKLAAKDKEAREALLAWHESLNIAVNSQSKIEKLREILQEYKNEKIIVFTRDTQMAYRISKTFLIPVVTYKTDKDEREEILQKFRDGEYRVIVASTVFDEGVDVPDATLAIVMGGYGTKRQFLQRLGRILRKKDKEALLIEIVTKGTADYRLSRRRRE
notes: residues 1 through 439 and up to 5 residues of the 6xHis-tag are seen in the crystal; also called wild type StXPB; source: E. coli Rosetta (DE3) pLysS, from pET15b, purified (heat step, ammonium sulfate, HisTrap, HiTrap SP, Sephacryl S-200)
B1 was tested, and the “ATPase activity of StXPB in the StXPB-Bax1 complex against StXPB alone” value was 5 fold.

Reference: paper PMC7293015 (Nucleic Acids Research, 2020)
